Measurements from patent publication US8071650B2, “Thiourea derivatives and the pharmaceutical compositions containing the same” (Pacific Corporation, priority 2000, dated 2011).
Like-named read-outs stand apart in the source and are kept apart here.

Protein sequences, listed by entry. Tags and fused reporters are not part of them.
UniProt O35433, whole entry: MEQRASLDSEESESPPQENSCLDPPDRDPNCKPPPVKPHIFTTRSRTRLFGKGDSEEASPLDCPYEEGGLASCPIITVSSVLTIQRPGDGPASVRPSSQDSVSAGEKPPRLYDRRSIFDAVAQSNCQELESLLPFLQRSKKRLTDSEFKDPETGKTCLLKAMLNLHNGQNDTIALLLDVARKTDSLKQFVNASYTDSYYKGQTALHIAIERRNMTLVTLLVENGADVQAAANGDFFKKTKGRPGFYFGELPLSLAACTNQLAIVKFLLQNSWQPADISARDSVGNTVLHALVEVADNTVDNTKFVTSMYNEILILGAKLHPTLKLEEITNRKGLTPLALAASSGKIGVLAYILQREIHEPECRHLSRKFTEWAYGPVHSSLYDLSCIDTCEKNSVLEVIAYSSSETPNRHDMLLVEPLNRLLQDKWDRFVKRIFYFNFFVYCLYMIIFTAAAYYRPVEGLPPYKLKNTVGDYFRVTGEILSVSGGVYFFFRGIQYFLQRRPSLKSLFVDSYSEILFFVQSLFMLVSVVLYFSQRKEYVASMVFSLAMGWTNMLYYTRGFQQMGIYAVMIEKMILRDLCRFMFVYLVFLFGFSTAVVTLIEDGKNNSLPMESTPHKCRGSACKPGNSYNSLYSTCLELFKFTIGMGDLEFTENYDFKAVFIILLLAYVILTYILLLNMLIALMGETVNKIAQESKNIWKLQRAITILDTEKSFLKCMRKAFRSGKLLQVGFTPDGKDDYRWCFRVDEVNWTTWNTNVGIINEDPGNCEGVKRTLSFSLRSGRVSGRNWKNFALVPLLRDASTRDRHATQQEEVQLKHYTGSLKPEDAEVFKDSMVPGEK

What was measured:
[1] = target: cation channel connected to vanilloid receptor (Rattus norvegicus, UniProt O35433); assay: Channel activity assay (Patchclamp Test); details: Table 1b; potency relative to capsazepine
vanilloid receptor = vanilloid receptor (Rattus norvegicus, UniProt O35433); assay: 45Ca influx test, antagonistic activity against capsaicin (Calcium Uptake Test, IC50); details: read-out: Calcium Uptake Test (IC50), neonatal SD rat DRG neurons, inhibition of response to capsaicin 0.5 μM
Male ICR mice = assay: Analgesic activity test: mouse writhing test by inducing with phenyl-p-quinone; details: dose 1 mg/kg intraperitoneally, 30 min before phenyl-p-quinone

| Structure (SMILES) | Patchclamp Test (antagonistic activities) [1] | IC50 (vanilloid receptor; Table 1b) [nM] | Analgesic effect (% Inhibition) (Male ICR mice) [%] | IC50 (vanilloid receptor; Table 1c) [nM] |
| --- | --- | --- | --- | --- |
| CC(C)COc1cc(C(C)(C)C)ccc1CNC(=S)NCc1ccc(NS(C)(=O)=O)cc1 | + | 19 |  |  |
| CC(C)Oc1cc(C(C)(C)C)ccc1CNC(=S)NCc1ccc(NS(C)(=O)=O)cc1 | + |  |  |  |
| COc1cc(CCCN(CCc2ccccc2)C(=S)NCCc2ccccc2)ccc1O |  |  | 57 | 380 |
| CCOc1cc(C(C)(C)C)ccc1CNC(=S)NCc1ccc(NS(C)(=O)=O)cc1 | + | 1140 |  |  |
| CCCOc1cc(C(C)(C)C)ccc1CNC(=S)NCc1ccc(NS(C)(=O)=O)cc1 | + |  |  |  |
| CC(C)(C)COc1cc(C(C)(C)C)ccc1CNC(=S)NCc1ccc(NS(C)(=O)=O)cc1 | + | 250 |  |  |
| CC(C)(C)c1ccc(CNC(=S)NCc2ccc(NS(C)(=O)=O)cc2)c(OCc2ccccc2)c1 | + |  |  |  |
| CCCCOc1cc(C(C)(C)C)ccc1CNC(=S)NCc1ccc(NS(C)(=O)=O)cc1 | + |  |  |  |
| COCCOc1cc(C(C)(C)C)ccc1CNC(=S)NCc1ccc(NS(C)(=O)=O)cc1 | + | 63 |  |  |
| COCOc1cc(C(C)(C)C)ccc1CNC(=S)NCc1ccc(NS(C)(=O)=O)cc1 | + |  |  |  |
